Values of other authors as cited in patent US6083922A (priority 1997, dated 2000).

Conditions: previous studies; cited from earlier work

NC[C@H]1O[C@H](O[C@H]2[C@H](O)[C@@H](O[C@H]3O[C@H](CO)[C@@H](O)[C@H](N)[C@H]3O)[C@H](N)C[C@@H]2N)[C@H](N)C[C@@H]1O [tobramycin]
fold higher concentration needed to overcome sputum inhibition: 5-10 times
